Values of other authors as cited in patent US20120288495A1, “THERAPEUTIC COMPOSITIONS AND METHODS” (BIOTHERA, INC., priority 2009, published 2012).

Settings: recommended dose regimen 400 mg/m^2 initial dose/250 mg/m^2 weekly dose; cited from earlier work

Substance: cetuximab
- time to steady-state levels: by the third weekly infusion
